# scFv variants of Ab-14 (heavy chain) against a SARS-CoV-2 spike peptide

Reference: Engelhart et al. 2022, doi:10.1038/s41597-022-01779-4. File: FLAb, binding data.

Binding partner: SARS-CoV-2 spike HR2 peptide, sequence PDVDLGDISGINAS.

Ab-14 is the parent antibody, in scFv form: VH, then a (GGGGS)3 linker, then VL. The light chain is unchanged in all variants.
VH: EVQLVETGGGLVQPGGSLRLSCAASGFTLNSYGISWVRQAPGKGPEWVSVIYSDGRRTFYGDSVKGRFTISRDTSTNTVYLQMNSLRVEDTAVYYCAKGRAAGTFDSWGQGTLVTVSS
VL: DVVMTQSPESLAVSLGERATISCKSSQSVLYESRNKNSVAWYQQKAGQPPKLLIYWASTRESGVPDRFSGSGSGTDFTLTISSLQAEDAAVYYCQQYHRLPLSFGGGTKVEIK

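Phage display of a naive human antibody library on the peptide gave the parent. The library (AAYL49) carries one to three amino acid substitutions per variant, with no insertions or deletions. AlphaSeq pools MATa yeast showing the antibodies with MATalpha yeast showing the peptide. After mating in shaken culture at 30 °C for 16 h, diploids were selected and their barcode pairs sequenced. The ratio of observed to expected reads was calibrated, replicate by replicate, on BCL2-family standards whose Kd was known from biolayer interferometry. Each pool was mated in three replicate cultures.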

Substitutions are numbered in sequence along the VH above, starting at 1 (not Kabat). This list gathers variants with a substitution at F105 (VH, numbered from residue 1). Values are apparent Kd, the geometric mean of the replicates that gave a signal; lower means stronger binding. Where no diploid with the target was found in any replicate, the entry reads "no signal": below detection, most likely a poor binder, though not proof of it. Empty control strains, which show no peptide, gave a signal in 15% of pairings with library AAYL49; the median was 11 µM and 95% of these signals were weaker than 680 nM. No background was subtracted.

With I51Y G99C F105N the result was no signal (0 of 3 replicates).
With T28H S35R F105Q the result was no signal (0 of 3 replicates).
With K65C F105N the result was no signal (0 of 3 replicates).
With S35I R57I F105D the result was no signal (0 of 3 replicates).
With N30D Y32S F105Y the result was no signal (0 of 3 replicates).
With S31W A101K F105N the result was no signal (0 of 3 replicates).
With L29G S53Y F105H the result was no signal (0 of 3 replicates).
With Y32E A101L F105I the result was no signal (0 of 3 replicates).
With G61S R100M F105G the result was 2.0 nM (3 of 3 replicates).
With F27I I34G F105R the result was no signal (0 of 3 replicates).
With T58K K65T F105E the result was no signal (0 of 3 replicates).
With G33P Y60Q F105C the result was no signal (0 of 3 replicates).
With Y60F G61L F105A the result was no signal (0 of 3 replicates).
With K65D F105G D106Q the result was 320 nM (3 of 3 replicates).
With F105I the result was no signal (0 of 3 replicates).
With T28Y R100L F105Q the result was 280 nM (3 of 3 replicates).
With I34G D62Q F105I the result was no signal (0 of 3 replicates).
With A102S T104F F105S the result was 12 µM (1 of 3 replicates).
With G26F F59E F105E the result was no signal (0 of 3 replicates).
With S53V F59R F105K the result was no signal (0 of 3 replicates).
With T104R F105H the result was 130 µM (2 of 3 replicates).
With I34N S35R F105N the result was no signal (0 of 3 replicates).
With S53W F105R S107G the result was no signal (0 of 3 replicates).
With S35R R100H F105Y the result was no signal (0 of 3 replicates).
With G26T V50A F105M the result was 78 µM (1 of 3 replicates).
With G33T I51W F105G the result was no signal (0 of 3 replicates).
With F105P the result was no signal (0 of 3 replicates).
With N30K G55W F105V the result was no signal (0 of 3 replicates).
With Y52A V64A F105P the result was 85 µM (2 of 3 replicates).
With V50W G103C F105V the result was no signal (0 of 3 replicates).
With T28R N30D F105I the result was 9.8 nM (3 of 3 replicates).
With Y32T G55T F105K the result was no signal (0 of 3 replicates).
With R57F R100I F105R the result was 3.2 µM (1 of 3 replicates).
With A102S F105Q the result was 25 nM (3 of 3 replicates).
With G33Q A101F F105I the result was 110 µM (2 of 3 replicates).
With S35G T58Y F105N the result was 25 µM (2 of 3 replicates).
With F27L F59E F105Y the result was no signal (0 of 3 replicates).
With V50I F105Q the result was 110 nM (3 of 3 replicates).

Top 5 of the variants detected in all replicates, tightest first:

changes,Kd,detected
G61S R100M F105G,2.0 nM,3/3
T28R N30D F105I,9.8 nM,3/3
A102S F105Q,25 nM,3/3
V50I F105Q,110 nM,3/3
T28Y R100L F105Q,280 nM,3/3